# From patent US20200197398A1, “NETARSUDIL AND LOW-DOSE BRIMONIDINE COMBINATION AND USES THEREOF” (Eye Therapies, LLC, priority 2017, published 2020)
# Legend:
# [1] = Prophetic intraocular pressure reduction, brimonidine and latanoprost (Example 1); details: 0.035% brimonidine, 0.005% latanoprost, or combination of 0.03% brimonidine and 0.005% latanoprost; topical
# [2] = Prophetic intraocular pressure reduction, brimonidine and netarsudil (Example 3); details: 0.0675% w/v brimonidine, 0.02% w/v netarsudil, or their combination; topical
smiles,measurement,setting,value
"Brc1c(N=C2NCCN2)ccc2nccnc12.O=C(O)C(O)C(O)C(=O)O [brimonidine, 5-bromo-6-(2-imidazolin-2-ylamino)quinoxaline D-tartrate]",ocular hyperemia (side effect),[1],not observed
same,ocular hyperemia (side effect),[2],not observed
